One data set concerns LoVo tumor cells. Put plainly: Anti-tumoral efficacy in the colorectal adenocarcinoma xenograft model LoVo. The class given is in vivo, NCr nu/nu mice. On the procedure: Purpose: To determine the anti-tumoral efficacy of methylene-THF in combination with cetuximab in the colorectal adenocarcinoma xenograft model LoVo.
(§1) Study Design: A total of 50 female NCr nu/nu mice (10 per group) at the age of 8-12 weeks were injected with 1×10^7 LoVo tumor cells in 50% Matrigel sc in flank. After seven days they were administered intraperitoneal injections according to the schedule in table 2. Animals were monitored individually. The endpoint of the experiment was a tumor weight of 1000 mm^3 or 75 days, whichever came first. Responders could be followed longer. When the endpoint was reached, the animals were euthanized. Body weight (g) and tumor volume (mm^3) was measured on days 1, 2, 3, 4, 5, 7, 11, 14, 18, 21, 25, 28, 32, 35, 39, 42, 46, 49, 53, 56, 60, 63, 67, 70 and 74.

The nature of data set [1]: Body weight and deaths (side effects) in the LoVo xenograft study. It counts as in vivo, NCr nu/nu mice. On the procedure:
as §1

On to cetuximab [Group 2], for which, in the data set on LoVo tumor cells (LoVo sc xenograft, 10 mice per group, ip dosing per Table 2, TP not defined), the “No of TP” value was 8. Also, the “Median tumor volume over time (FIG. 2), in words” value in the data set on LoVo tumor cells (LoVo xenograft, days 1-74) is on record as “least favorable development”. For the same substance, in the data set with LoVo tumor cells (endpoint: tumor weight of 1000 mm^3 or 75 days, whichever came first), the “Median Time to Endpoint” value is 56.7 days. In addition, in the data set with LoVo tumor cells (versus vehicle group 1), the “Percent tumor growth delay (TGD)” value was determined as 122%. In addition, the “No of treatment related deaths” value in data set [1] (10 mice per group, ip dosing per Table 2) is on record as 0. The “Development of median body weight over time (FIG. 4), in words” value in data set [1] (mouse, in vivo) was “weight increase better than the other groups including vehicle”.
